Results on 4 compounds are retold here after publication PMC10242237 (Scientific Reports, 2023).

What all share (format): biochemical
One assay concerns the target SARS-CoV-2 M^pro (Severe acute respiratory syndrome coronavirus 2, UniProt P0DTD1). In words: IC50 determination for SARS-CoV-2 Mpro (QS1 substrate). The following applies: read-out: SARS-CoV-2 M^pro IC50; 100 nM enzyme, 50 µM substrate, 2 min incubation at room temperature, non-reducing.
Assay [1] addresses SARS-CoV-2 nsp14 N7-MTase (Severe acute respiratory syndrome coronavirus 2, UniProt P0DTD1). In words: Py-FLINT fluorescence assay of nsp14 N7-MTase.
For another assay, the target named is SARS-CoV-2 PL^pro (Severe acute respiratory syndrome coronavirus 2, UniProt P0DTD1). The assay is described as follows: IC50 determination for SARS-CoV-2 PLpro (Ac-LRGG-ACC substrate). The following applies: 100 nM enzyme, 10 µM substrate, 30 min incubation at 37 °C, non-reducing.

As a reminder, the IC50 is the midpoint of a concentration-inhibition curve. As to `O=c1c2ccccc2[se]n1-c1ccc([N+](=O)[O-])cc1` [Compound 10], the IC50 at SARS-CoV-2 M^pro came out at 27.9 ± 5.1 nM; in assay [1], 3080 ± 460 nM; at SARS-CoV-2 PL^pro, 1880 ± 100 nM.

Regarding `COc1ccc(-n2[se]c3ccccc3c2=O)c(OC)c1` [Compound 16], the figures for the IC50 (on SARS-CoV-2 M^pro; in assay [1]; against SARS-CoV-2 PL^pro) were 52.5 ± 4.51 nM, 420 ± 40 nM and 990 ± 60 nM, respectively.

On to `O=c1c2ccccc2[se]n1-c1cc(Cl)ccc1F` [Compound 17, 2-(5-chloro-2-fluorophenyl)-1,2-benzisoselenazol-3(2H)-one], for which the IC50 on SARS-CoV-2 M^pro was determined as 15.2 ± 4.58 nM; in assay [1], 3830 ± 350 nM; at SARS-CoV-2 PL^pro, 2070 ± 80 nM.

For the compound `Cc1ccc(Cl)cc1-n1[se]c2ccccc2c1=O` [Compound 20], the results for the IC50 on SARS-CoV-2 M^pro and at SARS-CoV-2 PL^pro were 37.8 ± 3.28 nM and 1040 ± 80 nM, respectively.
